Results published in patent US20150342954A1, “2-BENZYL, 3-(PYRIMIDIN-2-YL) SUBSTITUTED PYRAZOLES USEFUL AS SGC STIMULATORS” (IRONWOOD PHARMACEUTICALS, INC., priority 2011, published 2015).

Columns and labels:
[1] = molecular target: T1, Human soluble guanylate cyclase enzyme (hsGC) (Homo sapiens, UniProt Q02108+Q02153); assay: Purified human sGC enzyme activity assay (without SNP); assay type: biochemical; details: compound at 30 μM, absence of SNP; fold over DMSO control; Table 5A
T1 construct: purchased Enzo Inc. ALX-201-177
T1 sequence (Q02153 1-619): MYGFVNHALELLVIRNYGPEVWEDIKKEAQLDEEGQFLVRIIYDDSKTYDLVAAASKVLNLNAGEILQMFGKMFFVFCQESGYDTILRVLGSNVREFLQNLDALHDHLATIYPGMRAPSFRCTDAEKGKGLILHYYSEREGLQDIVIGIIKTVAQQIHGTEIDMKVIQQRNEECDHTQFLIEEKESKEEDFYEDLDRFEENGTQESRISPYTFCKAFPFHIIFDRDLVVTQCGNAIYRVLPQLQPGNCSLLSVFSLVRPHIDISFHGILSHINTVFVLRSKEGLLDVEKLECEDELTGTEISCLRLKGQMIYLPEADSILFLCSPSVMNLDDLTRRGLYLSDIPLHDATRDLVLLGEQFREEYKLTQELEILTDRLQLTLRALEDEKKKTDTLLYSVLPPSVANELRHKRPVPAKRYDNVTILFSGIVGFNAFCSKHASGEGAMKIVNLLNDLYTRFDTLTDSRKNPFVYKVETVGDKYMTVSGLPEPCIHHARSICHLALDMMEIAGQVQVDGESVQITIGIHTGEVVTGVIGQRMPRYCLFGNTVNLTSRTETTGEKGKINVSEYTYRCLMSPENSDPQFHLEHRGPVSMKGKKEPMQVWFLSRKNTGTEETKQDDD
T1 sequence (Q02108 1-690): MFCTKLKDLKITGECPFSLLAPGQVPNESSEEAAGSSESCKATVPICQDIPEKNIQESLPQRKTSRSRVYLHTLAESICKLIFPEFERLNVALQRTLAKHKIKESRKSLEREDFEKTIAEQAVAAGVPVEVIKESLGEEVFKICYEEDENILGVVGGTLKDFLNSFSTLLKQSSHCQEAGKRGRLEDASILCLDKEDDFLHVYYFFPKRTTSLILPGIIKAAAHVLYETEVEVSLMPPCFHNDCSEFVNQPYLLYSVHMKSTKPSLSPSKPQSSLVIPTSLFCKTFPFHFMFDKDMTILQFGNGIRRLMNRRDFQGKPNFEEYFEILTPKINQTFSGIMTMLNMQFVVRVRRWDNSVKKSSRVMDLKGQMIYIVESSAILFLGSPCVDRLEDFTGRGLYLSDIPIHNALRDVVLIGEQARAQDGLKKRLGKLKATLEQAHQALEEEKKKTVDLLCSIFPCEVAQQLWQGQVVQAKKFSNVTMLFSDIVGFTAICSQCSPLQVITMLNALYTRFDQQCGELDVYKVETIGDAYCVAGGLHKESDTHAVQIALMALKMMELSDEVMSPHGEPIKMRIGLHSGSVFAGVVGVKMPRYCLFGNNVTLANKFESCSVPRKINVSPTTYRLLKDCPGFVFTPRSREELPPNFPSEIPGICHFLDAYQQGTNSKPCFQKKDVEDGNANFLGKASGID
Procedure: Biological Activity Measurements by the Purified Human sGC Enzyme Activity Assay
(§1) Human soluble guanylate cyclase enzyme (hsGC) obtained from Enzo Inc. (P/N: ALX-201-177) was used to evaluate the activity of test compounds. The assay reactions contained 0.1 M Tris (pH 8.0), 0.5 mg/mL BSA (pH 8.0), 2 mM DTT, 2 mM MgCl2, 300 μM GTP, 1 mM 3-isobutyl-1-methylxanthine (IBMX) and 5 ng human soluble guanylate cyclase enzyme. Test compounds in DMSO were then added (2 μL, 10 or 30 μM final concentration) and incubated (200 μL, 96-well plate format) at 37° C. for 30 minutes. The controls were carried out using 2 μL DMSO. After the 30 minute incubation, the reaction was stopped with the addition of 200 μl of cold methanol. The plate was then centrifuged at 3,200 rpm for 10 minutes at room temperature. Supernatants (200 μL) were collected and transferred to a new 96 well plate for analysis.
An 8 point cGMP (Sigma-Aldrich P/N: G6129) standard curve was prepared in assay buffer ranging from 0.156-20 μM. Samples for the cGMP standard curve were then diluted with an equal volume of methanol resulting in final cGMP concentrations of 0.078-10 μM. […]
Calculations: Specific Activity was determined by the amount of cGMP formed (nmoles) per mg of sGC per min. Enzyme “fold-change” was calculated by dividing Specific Activity for test compounds by Specific Activity of DMSO controls.

[2] = molecular target: T1, Human soluble guanylate cyclase enzyme (hsGC); assay: Purified human sGC enzyme synergy assay in the presence of 1 μM sodium nitroprusside (SNP); assay type: biochemical; details: compound at 30 μM, presence of 1 μM SNP; Table 5A
Procedure: as §1
An 8 point cGMP (Sigma-Aldrich P/N: G6129) standard curve was prepared in assay buffer ranging from 0.156-20 μM. Samples for the cGMP standard curve were then diluted with an equal volume of methanol resulting in final cGMP concentrations of 0.078-10 μM.
The cGMP standard curve was generated using GraphPad Prism Software.
Calculations: Specific Activity was determined by the amount of cGMP formed (nmoles) per mg of sGC per min. Enzyme “fold-change” was calculated by dividing Specific Activity for test compounds by Specific Activity of DMSO controls. […]

CN(C)c1nc(-c2cc(-c3ccon3)n(Cc3ccccc3F)n2)ncc1S(=O)(=O)O [Compound 51]
Enzyme Activity (increase at 30 μM without SNP) [1]: A (no increase to <2 fold increase)
Enzyme Activity (increase at 30 μM with SNP) [2]: A (no increase to <2 fold increase)
